From article PMC5759193, “The tankyrase inhibitor G007-LK inhibits small intestine LGR5^+ stem cell proliferation without altering tissue morphology” (Biological Research, 2018)

Test: Tolerance: body mass, food consumption, clinical observations
[1] = enriched diet 100 or 1000 mg G007-LK/kg chow, up to 3 weeks

CS(=O)(=O)c1ccc(-c2nnc(/C=C/c3nnc(-c4ccc(C#N)cc4)o3)n2-c2ccccc2Cl)nc1 [G007-LK]
body mass development vs control [1]: not affected | clinical observations [1]: no abnormalities | body mass at experimental endpoint vs vehicle (oral gavage daily 9 days, 10 or 50 mg/kg body mass): did not statistically significant (t test, p > 0.05) affect body mass
